# Literature values, collected in paper PMC2045123 (Analytical and Bioanalytical Chemistry, 2007).
# Tested on: androgen receptor
# Conditions: without metabolic activation; cited from earlier work
structure (smiles),measurement,value
C[C@]12CC[C@H](O)CC1=CC[C@@H]1[C@@H]2CC[C@]2(C)C(=O)CC[C@@H]12 [dehydroepiandrosterone],activity in yeast-based bioassays,not active
